# In ChEMBL document CHEMBL4725345, “DFG-1 Residue Controls Inhibitor Binding Mode and Affinity, Providing a Basis for Rational Design of Kinase Inhibitor Selectivity” (J Med Chem, 2020):
# Protein sequences, listed by entry. Tags and fused reporters are not part of them. Lines headed by an entry give the natural chain unless they say otherwise; changes in a name come on top.
# UniProt P49760, whole entry: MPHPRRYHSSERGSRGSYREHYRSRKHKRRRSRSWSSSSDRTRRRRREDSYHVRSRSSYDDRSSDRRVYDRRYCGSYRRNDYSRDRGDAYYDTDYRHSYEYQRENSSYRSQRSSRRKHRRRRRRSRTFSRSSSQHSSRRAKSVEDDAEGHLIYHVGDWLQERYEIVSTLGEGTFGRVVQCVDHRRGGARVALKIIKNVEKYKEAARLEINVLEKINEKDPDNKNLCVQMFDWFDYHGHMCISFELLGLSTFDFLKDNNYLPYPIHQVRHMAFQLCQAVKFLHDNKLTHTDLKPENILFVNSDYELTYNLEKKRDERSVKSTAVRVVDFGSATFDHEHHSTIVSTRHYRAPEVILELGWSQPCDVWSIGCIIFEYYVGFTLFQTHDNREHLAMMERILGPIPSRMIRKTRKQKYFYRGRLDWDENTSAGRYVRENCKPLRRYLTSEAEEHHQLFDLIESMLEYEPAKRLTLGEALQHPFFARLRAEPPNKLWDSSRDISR
# UniProt P49761: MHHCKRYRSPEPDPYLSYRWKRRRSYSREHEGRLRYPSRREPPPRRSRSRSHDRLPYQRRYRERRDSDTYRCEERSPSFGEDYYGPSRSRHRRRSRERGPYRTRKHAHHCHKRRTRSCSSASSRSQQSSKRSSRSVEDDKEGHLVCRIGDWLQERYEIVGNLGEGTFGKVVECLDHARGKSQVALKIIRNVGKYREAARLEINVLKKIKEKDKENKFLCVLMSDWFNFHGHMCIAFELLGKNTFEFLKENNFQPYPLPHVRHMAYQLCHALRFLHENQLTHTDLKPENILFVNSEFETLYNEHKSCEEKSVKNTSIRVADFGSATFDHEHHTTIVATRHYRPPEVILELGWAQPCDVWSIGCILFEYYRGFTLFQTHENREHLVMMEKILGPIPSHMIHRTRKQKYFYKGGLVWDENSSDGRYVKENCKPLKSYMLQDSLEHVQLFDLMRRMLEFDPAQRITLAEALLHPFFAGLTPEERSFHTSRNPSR
# UniProt P49759: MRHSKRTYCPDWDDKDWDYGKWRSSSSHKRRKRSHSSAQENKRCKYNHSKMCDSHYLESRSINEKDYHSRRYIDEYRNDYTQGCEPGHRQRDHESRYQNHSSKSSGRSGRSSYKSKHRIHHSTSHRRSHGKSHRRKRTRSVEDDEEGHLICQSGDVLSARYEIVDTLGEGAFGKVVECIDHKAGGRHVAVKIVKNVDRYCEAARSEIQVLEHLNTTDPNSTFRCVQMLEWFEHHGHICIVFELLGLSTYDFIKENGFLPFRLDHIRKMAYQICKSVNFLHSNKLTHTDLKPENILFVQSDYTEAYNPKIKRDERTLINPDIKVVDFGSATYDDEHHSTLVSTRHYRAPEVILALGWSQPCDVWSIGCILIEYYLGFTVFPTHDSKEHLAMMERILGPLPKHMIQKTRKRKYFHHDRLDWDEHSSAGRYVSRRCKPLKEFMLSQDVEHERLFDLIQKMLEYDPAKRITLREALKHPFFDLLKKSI
# Experiments:
# [1] = target: Dual specificity protein kinase CLK2 (Homo sapiens, UniProt P49760); experiment: Inhibition of human CLK2 by radiometric assay
# [2] = target: Dual specificity protein kinase CLK3 (Homo sapiens, UniProt P49761); experiment: Inhibition of human CLK3 by radiometric assay
# [3] = target: Dual specificity protein kinase CLK1 (Homo sapiens, UniProt P49759); experiment: Inhibition of human CLK1 by radiometric assay
smiles,measurement,setting,value
Cn1cc(-c2ccc3occ(-c4cccc(-c5ccncc5)c4)c3n2)cn1,IC50,[1],20 nM
same,IC50,[2],> 3000 nM
same,IC50,[3],8 nM
